The record followed here is PubChem BioAssay AID449 (The Scripps Research Institute Molecular Screening Center, 2006).

Chains of the proteins cited; added tags and fusions are not shown.
UniProt P21453, whole entry: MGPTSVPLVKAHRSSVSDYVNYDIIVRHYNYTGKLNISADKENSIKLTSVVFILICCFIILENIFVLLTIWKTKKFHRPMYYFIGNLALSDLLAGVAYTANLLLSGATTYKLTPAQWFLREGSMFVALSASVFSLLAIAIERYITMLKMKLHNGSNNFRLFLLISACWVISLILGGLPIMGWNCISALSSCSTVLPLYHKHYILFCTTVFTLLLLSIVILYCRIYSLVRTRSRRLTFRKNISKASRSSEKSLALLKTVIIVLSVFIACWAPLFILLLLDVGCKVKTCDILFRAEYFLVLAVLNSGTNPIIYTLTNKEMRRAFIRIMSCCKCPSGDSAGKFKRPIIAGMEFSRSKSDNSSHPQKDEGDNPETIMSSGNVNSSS

Molecules are shown by their SMILES. Only a part is listed here, and it is no random draw. Some of these compounds have results that are not shown, active ones among them. Activity calls are given as the source filed them.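 How the source made its calls: active means activation above a cutoff set at the mean activation of all tested compounds plus 3 SD (cut at about 54% in these data); inactive means the rest, inconclusive results apart.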

This assay concerns the target Sphingosine 1-phosphate receptor 1 (Homo sapiens) (UniProt P21453). Nature of the assay: activation or potentiation of human S1P1 signaling – cell-based, primary and confirmation screens, CRE-bla reporter, primary screen (AID 449).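 Further: forskolin at 4 µM as EC80 and the EC20 agonist is SEW2871; 100% = SEW2871 at its EC100 plus forskolin at EC80.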 The following applies: S1P1 CRE-bla cells, forskolin, beta-lactamase FRET, potentiator mode; at 9.5 µM; hits give high values; 100% = saturating reference agonist, 0% = basal; S1P1 agonist co-added at EC20, 2 nM.
Consider `O=C(OC1CN2CCC1CC2)C(CO)(c1ccccc1)c1ccccc1` (configuration not stated), for which the activation is inactive: -8.2%.
For `CN(C)c1cccc(C(=O)NCC2(N(C)C)CCCCC2)c1` the value was inactive: -3.1%.
